This note sets out measurements from ChEMBL document CHEMBL3351808, “Thiophenes, polyacetylenes and terpenes from the aerial parts of Eclipata prostrate” (Bioorg Med Chem, 2014).

Sequences of proteins named here, by UniProt entry; tags and fusion partners are left off.
UniProt P27487, whole entry: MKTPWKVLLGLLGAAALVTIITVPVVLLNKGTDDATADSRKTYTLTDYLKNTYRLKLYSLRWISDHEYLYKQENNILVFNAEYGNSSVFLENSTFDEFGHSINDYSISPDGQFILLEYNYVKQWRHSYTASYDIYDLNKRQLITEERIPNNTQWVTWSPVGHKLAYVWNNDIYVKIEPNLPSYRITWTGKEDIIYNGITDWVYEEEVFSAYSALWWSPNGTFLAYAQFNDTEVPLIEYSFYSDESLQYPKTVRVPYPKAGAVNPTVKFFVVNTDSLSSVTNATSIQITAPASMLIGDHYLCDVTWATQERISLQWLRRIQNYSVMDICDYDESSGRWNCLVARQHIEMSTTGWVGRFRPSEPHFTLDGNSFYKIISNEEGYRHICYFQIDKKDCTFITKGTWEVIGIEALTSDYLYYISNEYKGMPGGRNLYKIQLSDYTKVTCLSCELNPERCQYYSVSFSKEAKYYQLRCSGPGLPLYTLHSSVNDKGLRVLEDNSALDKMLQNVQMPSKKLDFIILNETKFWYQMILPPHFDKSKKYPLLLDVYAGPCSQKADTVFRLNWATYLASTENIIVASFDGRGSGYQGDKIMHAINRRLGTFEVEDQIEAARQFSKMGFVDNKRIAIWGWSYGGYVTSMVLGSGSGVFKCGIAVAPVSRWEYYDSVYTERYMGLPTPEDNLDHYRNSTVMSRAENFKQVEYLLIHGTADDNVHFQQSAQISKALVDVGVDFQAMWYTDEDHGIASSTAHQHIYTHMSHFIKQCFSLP

The target of this assay is Dipeptidyl peptidase 4 (Homo sapiens, UniProt P27487). The experiment in a line: Inhibition of DPP4 in human plasma using Gly-Pro-AMC substrate incubated for 20 mins by fluorometry.

By IC50 is commonly meant the concentration that gives 50% inhibition. A lower IC50 goes with higher potency.

Regarding `CC[C@H](C)[C@H](N)C(=O)N1CCC[C@H]1C(=O)N[C@H](C(=O)O)[C@@H](C)CC` [DIPROTIN A], the 50% inhibitory concentration (IC50) is 2.53 µM.
